Compound activity (PubChem)
Chronic BCR inh: inhibitors of chronic active B-cell receptor signaling. ABC-DLBCL IkBa-CBG/CBR reporter, luminescence ratio, 4 h. Potency, µM (top dose mostly 46.1 µM), without a hit: at the top dose activity change, negative = inhibition, usual class: inhibitors. actives 0.05% (n = 340,000); active = well fitted inhibition curve with a large enough effect in the signal ratio, with a control signal flat, not every such curve was filed as active; inconclusive = small, poorly fitted or top-dose-only effect, or effect the other way, or a change in a side signal; the % refers to the signal ratio;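 also: potency is read from the fitted curve at half-maximal effect; plate controls were basal doxycycline-induced cells for no effect and cells given 10 µM MG132 for full effect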
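Cell line TMD8 (human ABC DLBCL), stably expressing tet-inducible CBG68-IkBa fusion and CBR; IMDM/0.5% FBS; cpd up to 46 uM; dox induction, 4 h, 37C/5% CO2; dual luminescence; green/red ratio; MG132 control.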
PINK1 modulator: modulators of PINK1 expression; actives 0.2% (n = 410,000); Potency, µM (top dose mostly 76.6 µM), inactives show at the highest dose activation (PINK1 increase), actives largely listed as activators; PINK1 immunofluorescence, high-content cytometry, 24 h; AID 624263; active = well fitted activation curve with a large enough effect; inconclusive = small, poorly fitted or top-dose-only effect; cell line not stated here; also: potency is read from the fitted curve at half-maximal effect; % of control where 0% means no effect; nearly all actives have a fitted effect of over 65% in size
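PINK1 protein, normally rapidly degraded, was detected by immunofluorescence after 24 hour compound treatment of a stable cell line. Titration data (5 concentrations) came from laser-scanning cytometry, with CCCP-treated wells as controls.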
B2AR arrestin: agonists driving beta-arrestin recruitment to human beta2-adrenergic receptor. P07550. actives 0.02% (n = 330,000). Potency, µM (doses to about 46.1 µM), without a hit: at the highest dose activation, most hits filed as activators. beta-arrestin recruitment to beta2AR, cell-based reporter;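 also: potency is read from the fitted curve at half-maximal effect; 0% = DMSO controls and full agonism = EC100 isoproterenol or metaproterenol; nearly all actives have a fitted effect of over 65% in size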
PKM2 activator: PKM2 (human) enzyme activation | P14618 | purified PKM2, Kinase-Glo ATP luminescence, activation; response scale: 0% is enzyme alone, no compound | Potency, µM (series often up to 57.5 µM), inactives show at the highest dose activation, most hits filed as activators | actives 0.34% (n = 260,000) | AID 1631; also: potency is read from the fitted curve at half-maximal effect; % is scaled to controls: 0 for no effect and ±100 for the full control effect; nearly all actives have a fitted effect of over 55% in size
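ATP formation by purified human PK-M2, quantified via coupled luciferase luminescence after 1 h at room temperature with 0.1 mM ADP and 0.5 mM PEP final.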
Pin1 inhibitor: human Pin1 inhibition; actives 0.009% (n = 390,000); AID 504891; Potency, µM (series often up to 115 µM), without a hit: at the highest dose activity, negative = inhibition, usual class: inhibitors; Pin1 FP peptide displacement, HiFluor488, 10 min; Q13526; active = well fitted inhibition curve with a large enough effect in the polarisation, with a control signal flat, not every such curve was filed as active; inconclusive = small, poorly fitted or top-dose-only effect, or effect the other way, or a change in a side signal; inactive = no such curve, though single readings can be large or run the other way; the % refers to the polarisation; also: potency is read from the fitted curve at half-maximal effect; % is scaled to controls: 0 for no effect and ±100 for the full control effect
miR-21 FLuc: raises the signal of a miR-21 reporter; HeLa miR-21 FLuc reporter, luciferase, 48 h; Potency, µM (top dose mostly 38.3 µM), for inactives: at the highest dose reporter change, positive = more light; AID 2288; 340,000 tested, under 10 active; active = well fitted rising curve with a large enough effect; inconclusive = small, poorly fitted or top-dose-only effect; inactive = no such curve, though single readings can be large or run the other way;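 note: % of control where 0% means no effect; miR-21 action dims this reporter so a rising signal means less miR-21 action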
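HeLa cells stably expressing CMV-driven firefly luciferase with a downstream miR-21 binding sequence, endogenously expressing miR-21, were treated with titrations (up to about 40uM final) for 48 hours at 37 degree Celsius. Luciferase luminescence was read after lysis.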
The depositor's hits bear a star; ? = inconclusive; · = no result given. An excerpt weighted towards active compounds, which were near 0.46% of everything screened. Unless noted, calls follow the shape of the dose curve; as a rule, active = well fitted curve in the direction sought with a large enough effect; inconclusive = small, poorly fitted or top-dose-only effect, or another doubt; inactive = no such curve, though single readings can be large; an effect the other way counts as inactive or inconclusive.

| cpd | compound | miR-21 FLuc | Pin1 inhibitor | PINK1 modulator | B2AR arrestin | Chronic BCR inh | PKM2 activator |
| --- | --- | --- | --- | --- | --- | --- | --- |
| 1 | CCc1ccc(NS(=O)(=O)c2cc3c(cc2C)n(C)c(=O)c(=O)n3C)cc1 | 8% | 1% | 7% | 0% | 10% | ? |
| 2 | Cc1cc2c(cc1S(=O)(=O)Nc1ccc(F)cc1)n(C)c(=O)c(=O)n2C | 4% | ? | -1% | 1% | -4% | 2.5µM* |
| 3 | Cc1cc2c(cc1S(=O)(=O)Nc1cccc(C)c1C)n(C)c(=O)c(=O)n2C | -1% | 1% | 2% | -1% | -14% | 0.5µM* |
| 4 | CCN1CCN(C(=O)CCN(CC(C)C)c2nc(-c3cccs3)nc3ccccc23)CC1 | · | -4% | · | · | · | · |
| 5 | COc1ccc(NC(=O)c2sc3nc(-c4cccnc4)ccc3c2N)cc1OC | -7% | ? | 2% | 0% | 7% | 3% |
| 6 | Nc1c(C(=O)Nc2ccc(F)c(F)c2)sc2nc(-c3ccncc3)ccc12 | -14% | 0% | 1% | · | · | · |
| 7 | Cc1ccc(NC(=O)c2sc3nc(-c4ccncc4)ccc3c2N)cc1 | -19% | ? | 32µM* | · | · | · |
| 8 | COc1ccc(NC(=O)c2sc3nc(-c4cccnc4)ccc3c2N)cc1 | -11% | ? | 45µM* | 4% | 5% | -5% |
| 9 | Nc1c(C(=O)Nc2cccc(Cl)c2Cl)sc2nc(-c3cccnc3)ccc12 | -13% | ? | 12% | 0% | -13% | 8% |
| 10 | Nc1c(C(=O)Nc2ccccc2)sc2nc(-c3cccnc3)ccc12 | -44% | · | · | 0% | ? | 11µM* |
| 11 | O=C(Nc1ccc(O)c2ncccc12)c1ccccc1F | · | -7% | · | · | · | · |
| 12 | Oc1ccc(CNc2ccc(F)cc2F)c2cccnc12 | · | 5% | · | · | · | · |
| 13 | O=[N+]([O-])c1ccc(C=CC=Cc2ccccc2)cc1 | · | · | 32µM* | · | · | · |
| 14 | O=C(C=Cc1ccccc1)c1ccc([N+](=O)[O-])cc1 | · | -5% | 2% | · | · | · |
| 15 | O=C(O)c1cc(O)c2c(c1)[C@@H]([C@H]1c3cc(C(=O)O)cc(O)c3C(=O)c3c(O[C@@H]4O[C@H](CO)[C@@H](O)[C@H](O)[C@H]4O)cccc31)c1cccc(O[C@@H]3O[C@H](CO)[C@@H](O)[C@H](O)[C@H]3O)c1C2=O | · | 2.5µM* | 1% | -1% | ? | · |
| 16 | OCC1OC(Oc2cccc3ccccc23)C(O)C(O)C1O (configuration not stated) | -5% | -6% | 0% | 0% | 0% | · |
| 17 | CC(=O)Nc1sc2c(c1-c1nc3ccccc3s1)CNCC2 | · | -2% | · | · | · | · |
| 18 | O=C(Oc1c(Cl)cc(Cl)c2cccnc12)c1ccco1 | 25% | 0% | 6% | ? | ? | 0% |
| 19 | O=C(Oc1c(Cl)cc(Cl)c2cccnc12)c1cccs1 | 29% | 1% | -1% | ? | 23µM* | 3% |
| 20 | CCCN1CCN(c2cccc(Nc3nn4c(=O)c5ccccc5nc4s3)c2)CC1 | · | 6% | · | · | · | · |

Remaining list, next part.
| cpd | compound | miR-21 FLuc | Pin1 inhibitor | PINK1 modulator | B2AR arrestin | Chronic BCR inh | PKM2 activator |
| --- | --- | --- | --- | --- | --- | --- | --- |
| 21 | O=[N+]([O-])c1cc(C(F)(F)F)ccc1NCCc1ccccn1 | · | 3% | -1% | · | · | · |
| 22 | CS(=O)(=O)c1ccc(NCCc2ccccn2)c([N+](=O)[O-])c1 | -13% | -6% | 0% | 0% | 1% | 14µM* |
| 23 | Cc1ccc(CNC(=O)Cn2ccc3cc(S(=O)(=O)N4CCCC4)ccc32)o1 | 1% | 6% | 1% | 3% | -1% | 16µM* |
| 24 | COc1ccc(C2Nc3ccccc3C(=O)N2Cc2ccccc2)cc1COc1cccc(C)c1 (configuration not stated) | · | 26% | · | · | · | · |
| 25 | CCC(=O)N[C@@H]1c2ccccc2C2(CCN(Cc3cnc(N(C)C)s3)CC2)[C@H]1OC | · | · | -1% | · | · | · |
| 26 | CC(=O)Nc1cccc(OC2=NS(=O)(=O)c3ccccc32)c1 | · | -2% | · | · | · | · |
| 27 | CCc1nc2ccccc2n(CCOCCn2c(=O)c(CC)nc3ccccc32)c1=O | 3% | -7% | 10µM* | -1% | -1% | -12% |
| 28 | CCOCCn1c(CC)nc2ccccc21 | -6% | 1% | 0% | 0% | 13% | 4% |
| 29 | Cc1ccccc1-c1cccc(CN2CCc3nnc(C(C)NC(=O)c4cccnc4)n3CC2)c1 (configuration not stated) | · | · | 2% | · | · | · |

Four of the compounds above, as labelled records.
[29] Cc1ccccc1-c1cccc(CN2CCc3nnc(C(C)NC(=O)c4cccnc4)n3CC2)c1 (configuration not stated)
  miR-21 FLuc = ·
  Pin1 inhibitor = ·
  PINK1 modulator = 2%
  B2AR arrestin = ·
  Chronic BCR inh = ·
  PKM2 activator = ·
[28] CCOCCn1c(CC)nc2ccccc21
  miR-21 FLuc = -6%
  Pin1 inhibitor = 1%
  PINK1 modulator = 0%
  B2AR arrestin = 0%
  Chronic BCR inh = 13%
  PKM2 activator = 4%
[25] CCC(=O)N[C@@H]1c2ccccc2C2(CCN(Cc3cnc(N(C)C)s3)CC2)[C@H]1OC
  miR-21 FLuc = ·
  Pin1 inhibitor = ·
  PINK1 modulator = -1%
  B2AR arrestin = ·
  Chronic BCR inh = ·
  PKM2 activator = ·
[24] COc1ccc(C2Nc3ccccc3C(=O)N2Cc2ccccc2)cc1COc1cccc(C)c1 (configuration not stated)
  miR-21 FLuc = ·
  Pin1 inhibitor = 26%
  PINK1 modulator = ·
  B2AR arrestin = ·
  Chronic BCR inh = ·
  PKM2 activator = ·
